Several values for one entry are separate records, joined by “and”; a condition that tells them apart may be missing. Identical values can stand only once.
What was measured:
[1] = tested on: γ-globin proteins in CD34+-derived cells; test: γ-globin protein quantification by LC-MS/MS in CD34+-derived cells; assay type: cell-based, human
Description: The extraction and digestion of proteins were performed according to the method reported in a previous paper. Briefly, collected cell pellets, 120 μL of water, 12.5 μL of acetonitrile, and 12.5 μL of 1% formic acid were mixed and sonicated. The mixture was centrifuged to remove the cell debris and the supernatant was collected. Ten microliters of supernatant was reduced by dithiothreitol, alkylated with iodoacetamide, and digested with trypsin/Lys-C mix (Promega) in 50 mM ammonium bicarbonate (pH 8.0) (Sigma) at 37 °C overnight. For protein quantification analysis by LC–MS/MS, 10 pmol of stable isotope–labeled peptides (synthesized by the Support Unit for Bio-Material Analysis, RIKEN Center for Brain Science) were added to the digested sample as an internal standard. The digested sample was stored at −25 °C until analysis. The trypsinized sample was applied to an EASY-nLC 1000 liquid chromatograph (Thermo Fisher Scientific) and Q-Exactive mass spectrometer (Thermo Fisher Scientific) equipped with a nanospray ion source (Thermo Fisher Scientific). The peptides were separated with a NANO–HPLC Capillary Column C18 (0.075 mm i.d. × 150 mm, 3 µm; Nikkyo Technos) using a 120 min gradient at a flow rate of 300 nL/min: 5–35% B in 100 min, and then 35–65% B in 20 min (solvent A, 0.1% formic acid; solvent B, acetonitrile/0.1% formic acid). The resultant MS and MS/MS data were searched against the Swiss-Prot database (2020_01) using the MASCOT software (Matrix Science). The search parameters were as follows: enzyme, trypsin; max. missed cleavages, 1; fixed modifications, carbamidomethyl (Cys); variable modifications, oxidation (Met); peptide mass tolerance, 6 ppm; fragment mass tolerance, 20 mmu; min. peptide length, 4. The proteins were considered to be identified when they have at least one peptide with a significant MASCOT score (p < 0.05).
Protein quantification was performed using Vanquish UHPLC (Thermo Fisher Scientific) and TSQ-Vantage EMR (Thermo Fisher Scientific) with a HESI-II ion source (Thermo Fisher Scientific) in multiple reaction monitoring (MRM) mode. MRM transitions for target peptides and internal standards are summarized in Supplementary Table 12. The peptides were separated with a YMC-Triart C18 column (2.0 mm × 50 mm, 1.9 µm; YMC) at 40 °C using a linear gradient at a flow rate of 0.4 mL/min: initially 2% B for 1 min, and then 2–37% B for 4 min (solvent A, 0.1% formic acid; solvent B, acetonitrile). Pinpoint software (Thermo Fisher Scientific) was used for peak area calculation.

[2] = tested on: β- and γ-globin genes in HUDEP-2 cells; test: RT-qPCR of β- and γ-globin in HUDEP-2 cells; assay type: cell-based, human; settings: HUDEP-2, 4 days
Description: Total cellular RNA was prepared using the Tissue Total RNA Mini Kit (FAVORGEN), and cDNA was synthesized using ReverTra Ace Master Mix (TOYOBO). Expression of target genes was analyzed using THUNDERBIRD SYBR qPCR Mix (TOYOBO) on a CFX Connect Real Time System (Bio-Rad). The qPCR data were acquired on CFX Maestro (Bio-Rad). Primers are listed in Supplementary Table 10. GAPDH was used as a reference. Primers were purchased from INTEGRATED DNA TECHNOLOGIES or FASMAC.

NSD2 = molecular target: T1, NSD2 (Homo sapiens, UniProt O96028); test: biochemical
T1 sequence (O96028 1-1365): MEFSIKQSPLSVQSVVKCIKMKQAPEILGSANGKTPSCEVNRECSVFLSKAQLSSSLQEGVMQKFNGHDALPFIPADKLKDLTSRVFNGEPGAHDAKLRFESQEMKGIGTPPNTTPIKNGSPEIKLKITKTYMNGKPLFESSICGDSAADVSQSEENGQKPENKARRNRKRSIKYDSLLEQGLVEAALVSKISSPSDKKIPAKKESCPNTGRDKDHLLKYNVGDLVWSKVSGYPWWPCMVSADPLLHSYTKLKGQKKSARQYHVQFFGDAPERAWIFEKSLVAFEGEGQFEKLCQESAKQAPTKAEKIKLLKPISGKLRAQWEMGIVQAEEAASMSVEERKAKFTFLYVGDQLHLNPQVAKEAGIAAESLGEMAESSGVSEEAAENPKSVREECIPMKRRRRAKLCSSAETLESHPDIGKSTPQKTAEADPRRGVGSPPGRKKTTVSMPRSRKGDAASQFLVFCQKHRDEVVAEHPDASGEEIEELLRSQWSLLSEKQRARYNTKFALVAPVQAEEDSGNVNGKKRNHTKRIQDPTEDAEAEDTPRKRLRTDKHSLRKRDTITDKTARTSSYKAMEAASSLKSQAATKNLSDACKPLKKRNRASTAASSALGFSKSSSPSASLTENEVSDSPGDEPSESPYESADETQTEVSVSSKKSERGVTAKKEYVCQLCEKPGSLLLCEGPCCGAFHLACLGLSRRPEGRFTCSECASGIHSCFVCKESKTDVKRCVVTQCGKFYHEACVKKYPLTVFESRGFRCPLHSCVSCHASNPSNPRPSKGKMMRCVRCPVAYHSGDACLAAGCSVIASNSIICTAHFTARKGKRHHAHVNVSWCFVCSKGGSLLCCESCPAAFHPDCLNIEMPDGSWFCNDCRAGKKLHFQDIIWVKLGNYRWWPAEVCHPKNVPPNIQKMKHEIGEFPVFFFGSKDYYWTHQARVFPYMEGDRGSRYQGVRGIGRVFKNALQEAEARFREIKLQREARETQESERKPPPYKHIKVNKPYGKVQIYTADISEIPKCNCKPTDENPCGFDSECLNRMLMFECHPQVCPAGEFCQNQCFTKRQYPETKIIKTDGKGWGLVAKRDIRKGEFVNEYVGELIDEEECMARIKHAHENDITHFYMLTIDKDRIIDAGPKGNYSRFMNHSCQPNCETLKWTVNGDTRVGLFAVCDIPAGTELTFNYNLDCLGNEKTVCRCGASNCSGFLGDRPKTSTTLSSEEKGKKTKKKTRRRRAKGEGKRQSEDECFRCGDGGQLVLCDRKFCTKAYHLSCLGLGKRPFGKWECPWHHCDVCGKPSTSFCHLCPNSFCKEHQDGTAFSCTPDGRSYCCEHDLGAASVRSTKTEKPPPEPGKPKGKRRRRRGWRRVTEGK

In the case of `Cc1c(C(=O)NC(CCC2CC2)C(=O)Nc2ccc(C#N)cc2)[nH]c2c1C(=O)CC(C)(C)C2` (centres unmarked) [RK-701], the “Percentage of γ-globin proteins relative to total β-like globin proteins” value ([1]; day 11, 0.01 μM) is reported as 3.7% and 10.4% and 12.1%, the “Percentage of γ-globin proteins relative to total β-like globin proteins” value ([1]; day 11, 0.03 μM) is reported as 6.7% and 12.5% and 12.3% and the “Percentage of γ-globin proteins relative to total β-like globin proteins” value ([1]; day 11, 0.1 μM) is reported as 18.1% and 27.6% and 23.5%. For the same compound, the “Percentage of γ-globin proteins relative to total β-like globin proteins” value ([1]; day 11, 0.3 μM) was 20.3% and 30.5% and 25.7%, the “Percentage of γ-globin proteins relative to total β-like globin proteins” value ([1]; day 11, 1 μM) was 41.5% and 38.1% and 29.6% and the “Percentage of γ-globin proteins relative to total β-like globin proteins” value ([1]; day 11, 3 μM) was 24.8% and 34.5% and 30.7%. The “Relative expression of β-globin” value ([2]; 0.03 μM, relative to DMSO) was 1.119 and 1.1336 and 1.003, the “Relative expression of γ-globin” value ([2]; 0.03 μM, relative to DMSO) was 2.2316 and 2.688 and 1.988 and the “Relative expression of β-globin” value ([2]; 0.1 μM) was 1.111 and 1.056 and 1.092. For the same compound, the “Relative expression of γ-globin” value ([2]; 0.1 μM) was 2.76 and 3.079 and 2.8861, the “Relative expression of β-globin” value ([2]; 0.3 μM) was 1.06 and 0.9638 and 0.8535 and the “Relative expression of γ-globin” value ([2]; 0.3 μM) was 2.674 and 2.856 and 2.147. For the same compound, the “Relative expression of β-globin” value ([2]; 1 μM) was 1.094 and 1.022 and 0.957, the “Relative expression of γ-globin” value ([2]; 1 μM) was 2.438 and 2.463 and 2.5 and the “Relative expression of β-globin” value ([2]; 3 μM) was 1.043 and 0.9818 and 0.8971. The “Relative expression of γ-globin” value ([2]; 3 μM) was 2.427 and 2.061 and 2.035.
Compound `Nc1ncnc2c1ncn2[C@@H]1O[C@H](CSCC[C@H](N)C(=O)O)[C@@H](O)[C@H]1O` [SAH, S-(5'-Adenosyl)-L-homocysteine, reference compound] has an IC50 (NSD2) of 3.29 µM.

Reference: paper PMC9837035 (Nature Communications, 2023)
